Data reported in publication PMC4148173 (2014).

The chains behind the UniProt entries cited, without tags or fusion partners. Where a name states a change or a piece, a line headed by the entry shows the natural chain unless it says otherwise.
UniProt P35462, whole entry: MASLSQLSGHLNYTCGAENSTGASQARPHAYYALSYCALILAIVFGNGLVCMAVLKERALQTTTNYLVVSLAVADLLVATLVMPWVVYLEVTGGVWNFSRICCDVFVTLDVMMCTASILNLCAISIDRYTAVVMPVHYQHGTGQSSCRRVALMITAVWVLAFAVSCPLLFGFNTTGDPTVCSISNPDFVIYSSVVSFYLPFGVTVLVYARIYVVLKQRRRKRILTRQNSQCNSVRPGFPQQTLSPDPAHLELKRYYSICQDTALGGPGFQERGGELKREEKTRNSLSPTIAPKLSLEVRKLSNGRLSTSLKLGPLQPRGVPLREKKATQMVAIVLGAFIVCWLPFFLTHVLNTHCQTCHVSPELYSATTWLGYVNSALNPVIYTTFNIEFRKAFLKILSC

Target: human D3R (Homo sapiens, UniProt P35462)
Assay: [35S]GTPγS binding assay, CHO-hD3 membranes
Assay type: biochemical

CC(C)(C)c1nc(N2CCN(CCCCNC(=O)[C@H]3CC[C@H](c4ccccc4)CC3)CC2)cc(C(F)(F)F)n1 [Compound 39, trans-N-(4-(4-(2-(tert-Butyl)-6-(trifluoromethyl)pyrimidin-4-yl)piperazin-1-yl)butyl)-4-phenylcyclohexanecarboxamide]
Kb: 19 ± 4 nM
